Series [1] is described as follows: Rat tail-pinch model, antinociceptive activity. As to conditions: rats. Format: in vivo.
Series [2] can be described thus: Respiratory depression (increased PaCO2) in rats.

For the substance “(+)-3-((alpha-R)-alpha-((2S,5R)-4-allyl-2,5-dimethyl-1-piperazinyl)-3-hydroxybenzyl)-N-(3-fluorophenyl)-N-methylbenzamide”, the “Analgesic ED50 Tail Pinch” value in series [1] was found to be 0.050 mg/kg. In addition, in series [2] (rats, increased PaCO2), the “Respiratory Depression ED50” value is 0.91 mg/kg. The “Therapeutic Ratio” value in series [2] (respiratory depression ED50 versus analgesic ED50) is reported as 18.2.

The record behind these values is patent publication US11246865B2 (priority 2017, dated 2022).
